Reference: US20250161287A1, “METHODS, COMPOSITIONS, AND COMBINATIONS FOR PREVENTING OR TREATING CANCER RECURRENCE” (VUJA DE SCIENCES, INC., priority 2022, published 2025)

Tested on: MG63.3 OS cell line
Assay: 2D growth / cytotoxicity by MTT, MG63.3
Conditions: MG63.3, MTT, 72 h, replicates=3
Procedure: The number of viable cells present in 2D culture was determined by MTT as previously reported. Briefly, cells were plated in 96-well plates at 2,000 cells/well and incubated at 37° C. for 24 h. After 24 h, the media was replaced with fresh media containing drugs at the desired concentrations (10 pM-10 μM) and incubated at 37° C. for 72 h. After 72 h, MTT reagent (20 L/well of a 5 mg/mL stock solution in sterile water; Sigma, St. Louis, MO) was added to each well and the plate was incubated at 37° C. for 2 h. DMSO ([…]) was then added to each well to solubilize the formazan crystals.
The resulting absorbance was measured at 490 nm via plate reader (Molecular Devices, San Jose, CA). DMSO (0.1%) was used as vehicle control, while 20 μM rapamycin was used as a positive cell-kill control. The experimental conditions were conducted in triplicate and each experiment was repeated three times. Regression lines and IC50's were calculated using a four-parameter variable slope nonlinear fit in GraphPad Prism.

Compound: CO[C@@]12[C@H](COC(N)=O)C3=C(C(=O)C(C)=C(N)C3=O)N1C[C@@H]1N[C@@H]12 [mitomycin C]
- doses exhibiting cytotoxicity on 2D growth: > 200 nM
